Results taken from patent US20070053934A1, “Polyvalent multimeric composition containing active polypeptides, pharmaceutical compositions and methods of using the same” (priority 2005, published 2007).
Converted amounts (≈) assume the structure as drawn.

How the values were obtained:
[1] = tested on: B. subtilis; conditions: 6 h
[2] = tested on: sheep red blood cells; experiment: Hemolysis assay (Example 1A); assay type: cell-based; conditions: 10% suspension of sheep red blood cells, 37° C., 1 hr
Protocol: Hemolytic activity of the peptides was determined on a 10% suspension of sheep red blood cells in 10 mM Tris-HCl buffer, 150 mM NaCl, pH 7.0. 800 μL of this suspension were mixed in 1.5 mL Eppendorf tubes with varying volumes of peptide stock and buffers for a total volume of 1 mL. […] After the hour, the tubes were spun down at 3,000 rpm on a table top centrifuge for 5 mins, and the resulting supernatant was diluted by a factor of 40 in distilled water. The absorbance of the dilutions at 540 nm was measured in the Genesys 5 Spectrophotometer (Thermo Spectronic). Zero hemolysis and 100% hemolysis controls were determined by incubating the cells with buffer and 20% Tween, respectively. The final concentrations of peptides were designed to approximate 0.1×, 1×, 2×, 5×, and 10× of the MIC value for growth inhibition, to evaluate the potential therapeutic ratio.

[3] = tested on: B. subtilis; conditions: 18 h
[4] = tested on: E. coli; conditions: 18 h
[5] = tested on: fresh sheep erythrocytes; experiment: Hemolysis assay HD50 (Examples 1B and 2); assay type: cell-based
Protocol: Stock solutions of samples were prepared by the same procedure as in antibacterial assays. Hemolytic activity of monomeric peptides and multivalent ones were assessed on fresh sheep erythrocytes (Fitzgerald, Inc., MA) in 35 mM PBS buffer, 150 mM NaCl, pH 7.0. Peptide concentrations corresponding to 50% hemolysis were used as hemolytic dose (HD50) determined from dose-response curve (National Committee for Clinical Laboratory Standards. 2004, Methods for dilution antimicrobial susceptibility tests for bacteria that grow aerobically; sixth edition, approved standard M100-S14. National Committee for Clinical Laboratory Standards. Wayne, Pa.). Aliquots of cell suspension were mixed in eppendorf tubes with varying volumes of stocks and buffer for a total volume of 1 mL. Solutions containing same volume of DMSO without samples were used as control. These tubes were incubated at 37° C. for 1 hr, and then spun down at 3,000 rpm for 5 mins. The resulting supernatant was diluted by a factor of 40 in distilled water. The absorbances of the dilutions at 540 nm were measured in the Genesys 5 Spectrophotometer (Thermo Spectronic, Inc., NY). Zero hemolysis and 100% hemolysis controls were obtained by incubating the cells with buffer and 20% Tween, respectively. Hemolytic index (HI) was defined as HI=HD50/IC50. […]

Compound | MIC B. subtilis [1] [µg/mL] | Hemolytic Activity (10%) [2] [µg/mL] | IC50 B. subtilis [3] [µg/mL] | IC50 E. coli [4] [µg/mL] | HD50 red blood cell [5] [µg/mL]
CC(=O)N[C@@H](CCCNC(=N)N)C(=O)N[C@@H](CCCNC(=N)N)C(=O)N[C@@H](Cc1c[nH]c2ccccc12)C(=O)N[C@@H](Cc1c[nH]c2ccccc12)C(N)=O [Monomeric RRWW—NH2, Ac—RRWW—NH2] | 100 (≈ 134 µM) | 1250 | 131 (≈ 176 µM) | 586 (≈ 788 µM) | 2280
CC(=O)N[C@@H](CCCNC(=N)N)C(=O)N[C@@H](Cc1c[nH]c2ccccc12)C(=O)N[C@@H](CCCNC(=N)N)C(=O)N[C@@H](Cc1c[nH]c2ccccc12)C(N)=O [Monomeric RWRW—NH2, Ac—RWRW—NH2] | 90 (≈ 121 µM) | 2250 | 142 (≈ 191 µM) | 510 (≈ 686 µM) | 1850
